Source: ChEMBL document CHEMBL3352090, “Discovery of a Potent Analgesic NOP and Opioid Receptor Agonist: Cebranopadol” (2014)

Protein sequences, listed by entry. Tags and fused reporters are not part of them.
UniProt P35372, whole entry: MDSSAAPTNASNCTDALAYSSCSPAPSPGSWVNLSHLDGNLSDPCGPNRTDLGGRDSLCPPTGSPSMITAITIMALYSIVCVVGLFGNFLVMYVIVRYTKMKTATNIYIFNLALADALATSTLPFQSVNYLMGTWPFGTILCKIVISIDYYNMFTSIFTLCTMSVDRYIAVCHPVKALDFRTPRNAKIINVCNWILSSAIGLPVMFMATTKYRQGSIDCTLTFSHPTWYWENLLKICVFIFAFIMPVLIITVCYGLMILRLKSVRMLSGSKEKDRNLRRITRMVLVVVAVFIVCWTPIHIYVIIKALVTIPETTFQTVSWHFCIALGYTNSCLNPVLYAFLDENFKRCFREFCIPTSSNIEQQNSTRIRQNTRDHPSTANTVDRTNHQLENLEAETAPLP
UniProt P41146, whole entry: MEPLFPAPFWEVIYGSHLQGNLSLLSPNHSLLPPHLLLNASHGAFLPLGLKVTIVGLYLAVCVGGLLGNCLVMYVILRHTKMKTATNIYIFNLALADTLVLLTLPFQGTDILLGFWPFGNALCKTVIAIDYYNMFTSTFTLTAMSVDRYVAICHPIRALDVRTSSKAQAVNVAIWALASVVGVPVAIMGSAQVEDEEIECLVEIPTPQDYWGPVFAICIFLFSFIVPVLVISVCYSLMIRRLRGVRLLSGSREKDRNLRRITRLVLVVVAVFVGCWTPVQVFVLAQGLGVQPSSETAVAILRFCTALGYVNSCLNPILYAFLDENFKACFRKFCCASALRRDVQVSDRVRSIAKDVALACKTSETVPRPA

Columns and labels:
Mus musculus [1] = assay: Antinociceptive activity in orally dosed NMRI mouse assessed as time duration showing >20% maximum possible antinociceptive efficacy by tail flick test; conditions: strain NMRI
Mus musculus [2] = assay: Antinociceptive activity in orally dosed NMRI mouse assessed as increase in latency for tail withdrawal from radiant heat source by tail flick test; conditions: strain NMRI
Mus musculus [3] = assay: Antinociceptive activity in iv dosed NMRI mouse assessed as time duration showing >20% maximum possible antinociceptive efficacy by tail flick test; conditions: strain NMRI
Mus musculus [4] = assay: Antinociceptive activity in iv dosed NMRI mouse assessed as increase in latency for tail withdrawal from radiant heat source by tail flick test; conditions: strain NMRI
Mu-type opioid receptor [5] = target: T1, Mu-type opioid receptor (Homo sapiens, UniProt P35372); assay: Agonist activity at human recombinant MOP receptor expressed in CHO-K1 cells assessed as stimulation of [35S]GTPgammaS binding by scintillation proximity assay
Nociceptin receptor [6] = target: T2, Nociceptin receptor (Homo sapiens, UniProt P41146); assay: Agonist activity at human recombinant NOP receptor expressed in CHO-K1 cells assessed as stimulation of [35S]GTPgammaS binding by scintillation proximity assay
Mu-type opioid receptor [7] = target: T1, Mu-type opioid receptor; assay: Displacement of [3H]naloxone from human MOP receptor expressed in CHO-K1 cells by scintillation proximity assay
Nociceptin receptor [8] = target: T2, Nociceptin receptor; assay: Displacement of [3H]nociceptin from human NOP receptor expressed in CHO-K1 cells by scintillation proximity assay

SMILES: CN[C@]1(c2ccccc2)CC[C@]2(CC1)OCCc1c3cc(F)ccc3[nH]c12.O=C(O)CC(O)(CC(=O)O)C(=O)O
- Time (Mus musculus [1]): > 600 min
- ED50 (Mus musculus [2]): 1.43 µmol/kg
- MPE (Mus musculus [2]): > 95%
- Time (Mus musculus [3]): 300 min
- ED50 (Mus musculus [4]): 0.434 µmol/kg
- MPE (Mus musculus [4]): 100%

SMILES: CN[C@]1(c2ccccc2)CC[C@]2(CC1)OCCc1c3cc(F)ccc3[nH]c12
- EC50 (Mu-type opioid receptor [5]): 2.6 nM
- EC50 (Nociceptin receptor [6]): 60 nM
- Ki (Mu-type opioid receptor [7]): 2 nM
- Ki (Nociceptin receptor [8]): 11 nM

SMILES: CN(C)[C@]1(c2ccccc2)CC[C@]2(CC1)NCCc1c3ccccc3[nH]c12
- EC50 (Mu-type opioid receptor [5]): 0.2 nM
- EC50 (Nociceptin receptor [6]): 1.3 nM
- Ki (Mu-type opioid receptor [7]): 0.39 nM
- Ki (Nociceptin receptor [8]): 0.19 nM

SMILES: CN(C)[C@]1(c2ccccc2)CC[C@]2(CC1)OCCc1c3cc(O)ccc3[nH]c12.O=C(O)CC(O)(CC(=O)O)C(=O)O
- ED50 (Mus musculus [2]): 3.06 µmol/kg
- MPE (Mus musculus [2]): 100%
- ED50 (Mus musculus [4]): 0.0222 µmol/kg
- MPE (Mus musculus [4]): > 95%

SMILES: CN[C@]1(c2ccccc2)CC[C@]2(CC1)OCCc1c3ccccc3[nH]c12
- Ki (Mu-type opioid receptor [7]): 0.36 nM
- Ki (Nociceptin receptor [8]): 1.1 nM

SMILES: CN(C)[C@]1(c2ccccc2)CC[C@]2(CC1)OCCc1c3cc(O)ccc3[nH]c12
- EC50 (Mu-type opioid receptor [5]): 1.2 nM
- EC50 (Nociceptin receptor [6]): 120 nM
- Ki (Mu-type opioid receptor [7]): 0.4 nM
- Ki (Nociceptin receptor [8]): 1 nM

SMILES: CN(C)[C@]1(c2ccccc2)CC[C@@]2(CC1)c1[nH]c3ccccc3c1CCN2C
- Ki (Mu-type opioid receptor [7]): 0.24 nM
- Ki (Nociceptin receptor [8]): 0.55 nM
